Laboratory results from ChEMBL document CHEMBL1121477, “Noval antitumor nitrosoureas and related compounds and their reactions with DNA” (1980).

Assay: Percent ability of compound to produce DNA interstrand cross-links was determined by the ethidium fluorescence assay at 6 hr and compared with antileukemic property
Assay type: functional
Parameters: concentration or dose not given beside the values
In short: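 λ-DNA (1.0 A260 unit) was incubated with 5 mM compound in 50 mM potassium phosphate pH 7.2 at 37 °C. Aliquots went into 20 mM potassium phosphate pH 11.8, 0.4 mM EDTA and 0.5 µg/mL ethidium, were heated at 96 °C for 3 min and rapidly cooled. Fluorescence relative to control ×100 gives % DNA molecules with ≥1 interstrand cross-link; accuracy about ±2%.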

## N/C(=N\[N+](=O)[O-])N(CCCl)N=O
  Activity: 0%
